In ChEMBL document CHEMBL1134623, “Design and synthesis of a series of (2R)-N(4)-hydroxy-2-(3-hydroxybenzyl)-N(1)- [(1S,2R)-2-hydroxy-2,3-dihydro-1H-inden-1-yl]butanediamide derivatives as potent, selective, and orally bioavailable aggrecanase inhibitors” (J Med Chem, 2001):

Molecular target: T1, Interstitial collagenase (Homo sapiens, UniProt P03956)
T1 sequence (P03956 whole entry): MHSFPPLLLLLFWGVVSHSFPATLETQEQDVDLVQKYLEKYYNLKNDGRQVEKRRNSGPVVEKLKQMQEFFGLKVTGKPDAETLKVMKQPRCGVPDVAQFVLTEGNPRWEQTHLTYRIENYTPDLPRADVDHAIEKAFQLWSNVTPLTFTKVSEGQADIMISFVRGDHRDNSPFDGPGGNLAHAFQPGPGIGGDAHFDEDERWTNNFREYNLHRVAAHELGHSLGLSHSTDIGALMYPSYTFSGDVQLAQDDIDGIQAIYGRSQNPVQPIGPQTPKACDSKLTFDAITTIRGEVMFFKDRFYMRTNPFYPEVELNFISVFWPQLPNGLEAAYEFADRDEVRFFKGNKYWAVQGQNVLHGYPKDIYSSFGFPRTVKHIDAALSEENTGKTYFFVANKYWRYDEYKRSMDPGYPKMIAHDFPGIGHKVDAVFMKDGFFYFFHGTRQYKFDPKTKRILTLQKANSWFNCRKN
Test: Inhibition of matrix metalloprotease-1

SMILES: CNC(=O)[C@H](Cc1ccc(OC)cc1)NC(=O)[C@@H](CC(=O)NO)CC(C)C
- Ki: < 1 nM
